Results on two compounds are retold here after US20230014151A1, “COMBINATION ANTIVIRAL THERAPY FOR MEASLES” (The Trustees of Columbia University in the City of New York, priority 2019, published 2023).

Amino acid sequences for entries named in this document (tags omitted). Residues count along the entry.
UniProt Q786F3, 24-112: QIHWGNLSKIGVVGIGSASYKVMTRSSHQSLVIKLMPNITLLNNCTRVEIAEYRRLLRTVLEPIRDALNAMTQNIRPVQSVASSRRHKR
UniProt Q786F3, 113-550: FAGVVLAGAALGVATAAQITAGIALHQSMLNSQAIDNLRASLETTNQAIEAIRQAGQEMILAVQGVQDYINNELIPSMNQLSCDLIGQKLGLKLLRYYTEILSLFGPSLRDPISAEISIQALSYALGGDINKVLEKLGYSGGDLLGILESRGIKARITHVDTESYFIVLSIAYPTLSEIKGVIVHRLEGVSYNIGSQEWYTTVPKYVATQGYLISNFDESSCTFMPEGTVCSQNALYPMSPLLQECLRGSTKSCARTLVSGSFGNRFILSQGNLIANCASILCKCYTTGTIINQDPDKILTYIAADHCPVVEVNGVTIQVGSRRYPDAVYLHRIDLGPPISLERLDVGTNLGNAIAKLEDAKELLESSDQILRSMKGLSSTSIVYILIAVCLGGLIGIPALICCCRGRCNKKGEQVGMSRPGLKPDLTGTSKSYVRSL

Where two headings read alike, the source gives them in different places. A value given as a limit tells only on which side of the number the result lay.

The target of experiment [1] is viral glycoproteins (H and F); Nectin-4 (Measles virus, UniProt Q786F3). Briefly: beta-galactosidase complementation-based fusion assay, Nectin-4 target cells.
For experiment [2], the system named is MeV “WTFb” strain. Briefly: in vivo efficacy, intranasal peptides in MeV-infected cotton rats. As to conditions: intranasal 24 h and 12 h before infection, 5 m/kg dose, 4 days post-infection. The protocol:
FIGS. 84-93 further describe the invention. […] Intranasal administration of MeV-derived peptides protects cotton rats from MV infection. Cotton rats (n=4) were infected intranasally with MeV “WTFb” strain. Treatment was given intranasally 24 h and 12 h before infection in 100 ul (5 m/kg dose of peptides). The animals were euthanized 4 days post-infection.

Experiment [3] relates to HEK293T cells expressing MeV F. Briefly: localization of peptide in HEK293T cells expressing MeV F. As to conditions: 1 μM peptide, 60 min at 37° C. The format is cell-based, human. As to the method:
HEK293T cells expressing MeV F were incubated with peptide (1 μM) for 60 min at 37° C. F protein and HRC-FIP peptide were stained with Alexa Fluor 488 (green, x-axis) and Alexa Fluor 594 (red, y-axis), respectively. Representative of three separate experiments. […] FIP alone (without cholesterol) localizes the HRC to F expressing cells but with lower HRC signal (B). When lipid is present but FIP is missing (C) the HRC is not as specifically localized to the F-expressing cells.
FIGS. 92-93 show FIP-HRC targets MeV F expressing cells. […] HEK293T cell cultures were incubated with peptide (1 μM) for 60 min, at 37° C. F protein and HRC-FIP peptide were stained with Alexa Fluor 488 (green) and Alexa Fluor 594 (red), respectively.

Experiment [4] concerns the target viral glycoproteins (H and F); CD150. Briefly: beta-galactosidase complementation-based fusion assay, CD150 target cells.
The target in experiment [5] is T1, MeV F wild-type (Measles virus, UniProt Q786F3).
T1 construct: expressed in transfected cells; host or cells: 293T
Briefly: thermal stability of cell-expressed MeV F, pre-fusion conformation specific mAb staining. The class given is cell-based. As to the method: Thermal stability of the MeV F wild-type in presence of FIP, HRC, and FIP-HRC peptides. 293T cells expressing MeV F (“WT”) were incubated overnight at 37° C. The cells were then placed at 55° C. for 10 minutes in the presence of increasing concentrations of the indicated peptides. The cells were then incubated at 4° C. with pre-fusion conformation specific mouse mAb (77.4). Secondary antibody anti-mouse conjugated with Alexa 488 was used for detection. Stained cells were identified using a cell analyzer high content image system.
Concentration at which the pre-fusion epitope is 50% (“stable concentration50” or SC50) and 90% (“stable concentration90” or SC90) of the samples not incubated at 10 minutes at 55° C.
Concentration at which the pre-fusion epitope is 50% (“stable concentration50” or SC50) and 90% (“stable concentration900” or SC90) of the samples not incubated at 10 minutes at 55° C.
Cell surface staining with F-conformation-specific mAbs. 293T cells transiently transfected with viral glycoprotein constructs were incubated overnight at 37° C. in complete medium (DMEM, 10% FBS). Thereafter, cells were incubated with mouse monoclonal antibodies (mAbs) that specifically detect MeV F in its pre-fusion conformation (1:1,000) for 1 h on ice. […] Percentages of positively recognized cells were determined using Cell Profiler.

Experiment [6] concerns vesicular stomatitis virus (VSV). To be noted: 16 h.

As usually defined, the IC50 is the concentration that inhibits the measured activity by half. High values mean weaker potency, low ones greater potency. For orientation: IC90 means the point of the concentration-response curve where the effect stands at 90%. Turning to `CC[C@H](C)[C@H](NC(=O)[C@H](C)NC(=O)[C@H](CC(N)=O)NC(=O)CNC(=O)[C@H](CC(C)C)NC(=O)[C@H](CC(N)=O)NC(=O)[C@@H](NC(=O)CNC(=O)[C@@H](NC(=O)[C@H](CC(=O)O)NC(=O)[C@H](CC(C)C)NC(=O)[C@H](CCCNC(=N)N)NC(=O)[C@H](CCC(=O)O)NC(=O)[C@H](CC(C)C)NC(=O)[C@H](CO)NC(=O)[C@@H](NC(=O)[C@@H]1CCCN1C(=O)[C@@H]1CCCN1C(=O)CNC(=O)[C@H](CO)NC(=O)CNC(=O)[C@H](CO)NC(=O)CNC(=O)CNC(=O)[C@H](Cc1ccccc1)NC(=O)[C@@H](Cc1ccccc1)NC(=O)OCc1ccccc1)[C@@H](C)CC)C(C)C)[C@@H](C)O)C(=O)N[C@@H](C)C(=O)N[C@@H](CCCCN)C(=O)N[C@@H](CC(C)C)C(=O)N[C@@H](CCC(=O)O)C(=O)N[C@@H](CC(=O)O)C(=O)N[C@@H](C)C(=O)N[C@@H](CCCCN)C(=O)N[C@@H](CCC(=O)O)C(=O)N[C@@H](CC(C)C)C(=O)N[C@@H](CC(C)C)C(=O)N[C@@H](CCC(=O)O)C(=O)N[C@@H](CO)C(=O)N[C@@H](CO)C(=O)N[C@@H](CC(=O)O)C(=O)N[C@@H](CCC(N)=O)C(=O)N[C@H](C(=O)N[C@@H](CC(C)C)C(=O)N[C@@H](CCCNC(=N)N)C(=O)NCC(=O)N[C@@H](CO)C(=O)NCC(=O)N[C@@H](CO)C(=O)NCC(=O)N[C@@H](CSC1CC(=O)N(CCCC(=O)NCCOCCOCCOCCOCCC(=O)NCCN(CCNC(=O)CCOCCOCCOCCOCCNC(=O)CCCN2C(=O)CC(SC[C@H](NC(=O)CNC(=O)[C@H](CO)NC(=O)CNC(=O)[C@H](CO)NC(=O)CNC(=O)[C@H](CCCNC(=N)N)NC(=O)[C@H](CC(C)C)NC(=O)[C@@H](NC(=O)[C@H](CCC(N)=O)NC(=O)[C@H](CC(=O)O)NC(=O)[C@H](CO)NC(=O)[C@H](CO)NC(=O)[C@H](CCC(=O)O)NC(=O)[C@H](CC(C)C)NC(=O)[C@H](CC(C)C)NC(=O)[C@H](CCC(=O)O)NC(=O)[C@H](CCCCN)NC(=O)[C@H](C)NC(=O)[C@H](CC(=O)O)NC(=O)[C@H](CCC(=O)O)NC(=O)[C@H](CC(C)C)NC(=O)[C@H](CCCCN)NC(=O)[C@H](C)NC(=O)[C@@H](NC(=O)[C@H](C)NC(=O)[C@H](CC(N)=O)NC(=O)CNC(=O)[C@H](CC(C)C)NC(=O)[C@H](CC(N)=O)NC(=O)[C@@H](NC(=O)CNC(=O)[C@@H](NC(=O)[C@H](CC(=O)O)NC(=O)[C@H](CC(C)C)NC(=O)[C@H](CCCNC(=N)N)NC(=O)[C@H](CCC(=O)O)NC(=O)[C@H](CC(C)C)NC(=O)[C@H](CO)NC(=O)[C@@H](NC(=O)[C@@H]3CCCN3C(=O)[C@@H]3CCCN3C(=O)CNC(=O)[C@H](CO)NC(=O)CNC(=O)[C@H](CO)NC(=O)CNC(=O)CNC(=O)[C@H](Cc3ccccc3)NC(=O)[C@@H](Cc3ccccc3)NC(=O)OCc3ccccc3)[C@@H](C)CC)C(C)C)[C@@H](C)O)[C@@H](C)CC)[C@@H](C)CC)C(=O)O)C2=O)CCO[C@H]2CC[C@@]3(C)C(=CC[C@H]4[C@@H]5CC[C@H]([C@H](C)CCCC(C)C)[C@@]5(C)CC[C@@H]43)C2)C1=O)C(=O)O)[C@@H](C)CC` (single isomer, unassigned), the IC50 amounted to 0.023 ± 0.0132 µM in experiment [1] and 0.0257 ± 0.0117 µM in experiment [4]. Also, the IC90 came to 0.105 ± 0.0561 µM in experiment [1], 0.105 ± 0.0561 µM in experiment [1] (read-out: Nectin4 IC90) and 0.124 ± 0.01 µM in experiment [4] (read-out: CD150 IC90). For the same compound, in experiment [2], the “MeV titration of lung homogenates” value is reported as “most potent inhibitor”. Also, the “localization to F-expressing cells, flow cytometry” value in experiment [3] was “HRC signal is directly proportional to the F signal”. In experiment [3], the “localization with F protein, fluorescence imaging” value is reported as “colocalization”. Also, the “percentage of F in pre-fusion state (conformational antibody binding)” value in experiment [5] (293T cells expressing MeV F, 55° C. for 10 minutes, increasing peptide concentrations) is on record as “most effective at stabilizing F in pre-fusion state”. For the same compound, the “F stabilization, SC50 and SC90” value in experiment [5] (MeV F (wt), 10 minutes at 55° C.) was “most effective F stabilizer”.

In turn, `CC[C@H](C)[C@H](NC(=O)[C@H](C)NC(=O)[C@H](CC(N)=O)NC(=O)CNC(=O)[C@H](CC(C)C)NC(=O)[C@H](CC(N)=O)NC(=O)[C@@H](NC(=O)CNC(=O)[C@@H](NC(=O)[C@H](CC(=O)O)NC(=O)[C@H](CC(C)C)NC(=O)[C@H](CCCNC(=N)N)NC(=O)[C@H](CCC(=O)O)NC(=O)[C@H](CC(C)C)NC(=O)[C@H](CO)NC(=O)[C@@H](NC(=O)[C@@H]1CCCN1C(=O)[C@@H]1CCCN1C(=O)CNC(=O)[C@H](CO)NC(=O)CNC(=O)[C@H](CO)NC(=O)CNC(=O)CNC(=O)[C@H](Cc1ccccc1)NC(=O)[C@@H](Cc1ccccc1)NC(=O)OCc1ccccc1)[C@@H](C)CC)C(C)C)[C@@H](C)O)C(=O)N[C@@H](C)C(=O)N[C@@H](CCCCN)C(=O)N[C@@H](CC(C)C)C(=O)N[C@@H](CCC(=O)O)C(=O)N[C@@H](CC(=O)O)C(=O)N[C@@H](C)C(=O)N[C@@H](CCCCN)C(=O)N[C@@H](CCC(=O)O)C(=O)N[C@@H](CC(C)C)C(=O)N[C@@H](CC(C)C)C(=O)N[C@@H](CCC(=O)O)C(=O)N[C@@H](CO)C(=O)N[C@@H](CO)C(=O)N[C@@H](CC(=O)O)C(=O)N[C@@H](CCC(N)=O)C(=O)N[C@H](C(=O)N[C@@H](CC(C)C)C(=O)N[C@@H](CCCNC(=N)N)C(=O)NCC(=O)N[C@@H](CO)C(=O)NCC(=O)N[C@@H](CO)C(=O)NCC(=O)N[C@@H](CSC1CC(=O)N(CCCC(=O)NCCOCCOCCOCCOCCC(=O)NCCN(CCNC(=O)CCOCCOCCOCCOCCNC(=O)CCCN2C(=O)CC(SC[C@H](NC(=O)CNC(=O)[C@H](CO)NC(=O)CNC(=O)[C@H](CO)NC(=O)CNC(=O)[C@H](CCCNC(=N)N)NC(=O)[C@H](CC(C)C)NC(=O)[C@@H](NC(=O)[C@H](CCC(N)=O)NC(=O)[C@H](CC(=O)O)NC(=O)[C@H](CO)NC(=O)[C@H](CO)NC(=O)[C@H](CCC(=O)O)NC(=O)[C@H](CC(C)C)NC(=O)[C@H](CC(C)C)NC(=O)[C@H](CCC(=O)O)NC(=O)[C@H](CCCCN)NC(=O)[C@H](C)NC(=O)[C@H](CC(=O)O)NC(=O)[C@H](CCC(=O)O)NC(=O)[C@H](CC(C)C)NC(=O)[C@H](CCCCN)NC(=O)[C@H](C)NC(=O)[C@@H](NC(=O)[C@H](C)NC(=O)[C@H](CC(N)=O)NC(=O)CNC(=O)[C@H](CC(C)C)NC(=O)[C@H](CC(N)=O)NC(=O)[C@@H](NC(=O)CNC(=O)[C@@H](NC(=O)[C@H](CC(=O)O)NC(=O)[C@H](CC(C)C)NC(=O)[C@H](CCCNC(=N)N)NC(=O)[C@H](CCC(=O)O)NC(=O)[C@H](CC(C)C)NC(=O)[C@H](CO)NC(=O)[C@@H](NC(=O)[C@@H]3CCCN3C(=O)[C@@H]3CCCN3C(=O)CNC(=O)[C@H](CO)NC(=O)CNC(=O)[C@H](CO)NC(=O)CNC(=O)CNC(=O)[C@H](Cc3ccccc3)NC(=O)[C@@H](Cc3ccccc3)NC(=O)OCc3ccccc3)[C@@H](C)CC)C(C)C)[C@@H](C)O)[C@@H](C)CC)[C@@H](C)CC)C(=O)O)C2=O)CCO[C@H]2CC[C@@]3(C)C(=CC[C@H]4[C@@H]5CC[C@H]([C@H](C)CCCC(C)C)[C@@]5(C)CC[C@@H]43)C2)C1=O)C(=O)O)[C@@H](C)CC` (single isomer, unassigned) [FIP HRC] displayed an IC50 in experiment [6] greater than 5 µM.
